Earlier results, collected in US6544565B2, “Use of Valeriana for the treatment of Restless Leg Syndrome and related disorders” (Ancile Pharmaceuticals, Inc., priority 1999, dated 2003).

By UniProt entry, the sequences of proteins in these tests, tags left out.
UniProt P35462, whole entry: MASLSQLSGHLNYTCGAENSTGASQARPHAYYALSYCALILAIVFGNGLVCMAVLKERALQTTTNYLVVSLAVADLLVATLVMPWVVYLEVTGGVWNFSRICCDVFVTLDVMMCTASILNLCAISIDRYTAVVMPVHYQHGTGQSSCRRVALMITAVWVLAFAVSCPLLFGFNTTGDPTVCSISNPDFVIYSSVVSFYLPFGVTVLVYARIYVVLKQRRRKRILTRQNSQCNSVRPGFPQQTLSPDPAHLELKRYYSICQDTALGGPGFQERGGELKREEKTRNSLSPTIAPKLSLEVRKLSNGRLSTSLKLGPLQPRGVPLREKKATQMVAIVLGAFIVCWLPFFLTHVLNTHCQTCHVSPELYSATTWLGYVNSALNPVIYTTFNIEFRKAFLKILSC

Target: human dopamine D3 receptor (Homo sapiens, UniProt P35462)
Settings: Reference Data for receptor binding assay; cited from earlier work

| Substance | IC50 | Ki | nH |
| --- | --- | --- | --- |
| 7-Chloro-2,3,4,5-tetrahydro-3-methyl-5-phenyl-1H-3-benzazepine-7-ol [SCH-23390] | > 10000 nM | – | – |
| S-(−)-Sulpiride | 850 nM | 48 nM | 1.0 |
